What all share (assay type): cell-based
Assay [1] is described as follows: Inhibition of NFkappaB in mouse RAW 264.7 cells assessed as reduction in LPS induced NO production after 24 hrs by Griess assay. Particulars: RAW264.7, 24 h. In general terms: Nitrite, measured by Griess reagent, commonly stands in for NO production.
In assay [2] the target is T1, Estrogen receptor (Homo sapiens, UniProt P03372). As to the kind of experiment: Agonist activity at human ERalpha expressed in HEK293T cells after 24 hrs by ERE-based dual luciferase reporter gene assay relative to E2.
Assay [3] concerns the target T1, Estrogen receptor. The assay is described as follows: Antagonist activity at human ERalpha expressed in HEK293T cells after 24 hrs by ERE-based dual luciferase reporter gene assay relative to E2. A general note: In a reporter assay the amount or activity of a reporter protein is the signal.
For assay [4], the target named is Estrogen receptor beta (Homo sapiens, UniProt Q92731). The assay is described as follows: Agonist activity at human ERbeta expressed in HEK293T cells after 24 hrs by ERE-based dual luciferase reporter gene assay.

The chains behind the UniProt entries cited, without tags or fusion partners.
UniProt P03372, whole entry: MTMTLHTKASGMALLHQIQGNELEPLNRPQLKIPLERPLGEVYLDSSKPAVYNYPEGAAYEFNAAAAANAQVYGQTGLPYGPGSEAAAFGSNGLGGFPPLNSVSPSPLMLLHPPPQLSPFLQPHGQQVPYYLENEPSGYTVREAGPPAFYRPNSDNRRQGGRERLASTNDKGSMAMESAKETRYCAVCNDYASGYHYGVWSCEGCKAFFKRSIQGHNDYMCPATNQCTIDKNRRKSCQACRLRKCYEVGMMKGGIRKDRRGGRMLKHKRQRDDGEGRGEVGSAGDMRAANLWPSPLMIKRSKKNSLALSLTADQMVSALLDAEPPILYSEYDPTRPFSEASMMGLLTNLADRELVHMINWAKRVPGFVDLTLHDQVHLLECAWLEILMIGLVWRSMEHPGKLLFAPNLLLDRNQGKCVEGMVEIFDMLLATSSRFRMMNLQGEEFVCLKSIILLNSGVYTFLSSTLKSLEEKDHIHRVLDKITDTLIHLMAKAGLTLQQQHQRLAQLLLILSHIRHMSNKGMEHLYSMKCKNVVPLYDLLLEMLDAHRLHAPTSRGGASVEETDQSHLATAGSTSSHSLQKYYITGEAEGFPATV
UniProt Q92731, whole entry: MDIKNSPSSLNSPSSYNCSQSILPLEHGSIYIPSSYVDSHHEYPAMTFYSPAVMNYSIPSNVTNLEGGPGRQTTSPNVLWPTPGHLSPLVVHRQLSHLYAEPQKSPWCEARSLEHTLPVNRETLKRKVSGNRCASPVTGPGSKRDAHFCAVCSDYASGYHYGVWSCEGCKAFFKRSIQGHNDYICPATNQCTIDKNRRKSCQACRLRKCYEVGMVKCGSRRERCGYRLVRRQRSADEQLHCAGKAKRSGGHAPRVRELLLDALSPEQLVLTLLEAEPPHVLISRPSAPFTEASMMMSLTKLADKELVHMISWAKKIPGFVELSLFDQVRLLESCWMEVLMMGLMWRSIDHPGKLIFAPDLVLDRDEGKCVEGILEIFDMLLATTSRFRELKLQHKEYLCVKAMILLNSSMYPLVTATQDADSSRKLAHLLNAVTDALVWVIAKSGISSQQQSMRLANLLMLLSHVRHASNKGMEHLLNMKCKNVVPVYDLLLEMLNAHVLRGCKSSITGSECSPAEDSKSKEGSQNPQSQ

Drawing on ChEMBL document CHEMBL4196131 (J Med Chem, 2018), this text covers IC50, Efficacy and EC50 for three molecules.

pEC50, pIC50: −log10 of the molar value.

For orientation: pIC50 means −log10 of the IC50, conventionally taken in molar units. For `O=S(=O)(Oc1ccc(O)cc1)C1CC2OC1C(c1ccc(/C=C/c3cc(O)cc(O)c3)cc1)=C2c1ccc(O)cc1` (centres undefined), in assay [1], the negative-log IC50 (pIC50) was 4.81.

In the case of `O=S(=O)(Oc1ccccc1)[C@H]1C[C@@H]2O[C@@H]1C(c1ccc(O)cc1)=C2c1ccc(O)cc1` (relative stereo), the Efficacy in assay [2] is 58%; in assay [3] it was 69%.

The pEC50 is −log10 of the EC50, conventionally taken in molar units. Lower therefore signals a high EC50. Consider `COc1cc(/C=C/c2cccc(OS(=O)(=O)C3CC4OC3C(c3ccc(O)cc3)=C4c3ccc(O)cc3)c2)cc(OC)c1` (centres undefined), for which the negative-log EC50 (pEC50) in assay [4] was 6.86.
